Measurements from US7795495B2, “Transgenic mice for screening for inhibitors of protein aggregation and methods for making and using them” (The Regents of the University of California, priority 2000, dated 2010).

Experiments:
[1] = molecular target: α-synuclein (Homo sapiens, UniProt P37840); assay: α-synuclein aggregation under high temperature conditions, immunoblotting analysis; type: biochemical; details: pH 6.9, 65 °C, 20 hours
Procedure: Briefly, 10 µM α-synuclein was incubated either alone, or in the presence of either 10 µM β-synuclein or 10 µM IgG under pH 6.9 buffer conditions at 65° C. for 0, 6, 12, and 20 hours. In a simultaneous experiment, 10 µM α-synuclein was incubated with various concentrations (0, 2.5, 10, 40, and 160 µM) of β-synuclein under the same pH and temperature conditions for 20 hours. Quantification of immunoblotting analysis showing the ratio of aggregates versus monomer can be seen in FIG. 4.
Because synuclein forms both homo- and hetero-dimers, it is likely that binding might occur in the vicinity of the N-terminus. To characterize the functional domain of β-synuclein responsible for suppression of α-synuclein aggregation, peptides corresponding to amino acids 1-15 (Seq ID #7), 16-27 (Seq ID #8), 28-38 (Seq ID #9), 39-50 (Seq ID #10), and 51-61 (Seq ID #11) of the N-terminal region of β-synuclein were synthesized. Varying concentration of the peptides (1, 10, and 100 µM) were co-incubated with 10 µM α-synuclein under high temperature conditions for 20 hours.

[2] = molecular target: T1, NAC (Homo sapiens, UniProt P37840); assay: Co-incubation of NAC with β-synuclein under high temperature conditions (NAC aggregation); type: biochemical; details: 10 µM NAC with 0, 1, 10 µM β-synuclein, 20 hours, data not shown
T1 construct: 35 amino acid amyloidogenic molecule non-amyloid component (NAC)
Procedure: Applicants confirmed this through the generation of mutants of β-synuclein having added segments of the NAC domain. The two mutants of β-synuclein were created by PCR-based site-directed mutagenesis (FIG. 1), inserting amino acids 72-83 (designated δ1)(Seq ID #1) and 63-72 (designated δ2)(Seq ID #2) of NAC and NAC N-terminal, respectively, into β-synuclein. The proteins, β-synuclein, β-synuclein δ1, β-synuclein δ2, and α-synuclein, were incubated under high temperature conditions (65° C.), according to the previously established protocol of Hashimoto et al. (Brain Res. 799:301-306, 1998), which is herein incorporated by reference, showing that the aggregation of α-synuclein is inducible under high temperature conditions. Each of the protein samples (20 µM) was incubated under pH 6.9, 65° C. conditions for 0, 8, and 20 hours. The incubated samples were run over SDS-PAGE and the resulting protein bands visualized by Coomassie/brilliant blue staining (FIG. 2).
As established in Example 1, the NAC domain of α-synuclein forms β-pleated protein structures and is present in the senile plaques of Alzheimer's disease where it may be involved in Alzheimer's disease amyloidogenesis. It can therefore be postulated that the inhibition of the aggregation of NAC might block the initial step in amyloid formation. […]

## β-synuclein
[1]; 10 µM α-synuclein with 0, 2.5, 10, 40, 160 µM β-synuclein
  inhibition of α-synuclein aggregation (ratio of aggregates versus monomer): inhibits α-synuclein aggregation in a dose dependent manner
[1]; relative to 10 µM α-synuclein
  concentrations of β-synuclein shown to be effective against α-synuclein aggregation: more than equi-molar concentrations
[2]
  inhibition of the aggregation of NAC: inhibits the aggregation of NAC in a concentration-dependent manner
